Experimental data published in paper PMC13642346.

B1: FLAG-GPR84-eYFP, wild type [human] / β-arrestin-1 fused to nano-luciferase [not stated] (parent)
chain 1: MGDKGTRVFKKASPNGKLTVYLGKRDFVDHIDLVDPVDGVVLVDPEYLKERRVYVTLTCAFRYGREDLDVLGLTFRKDLFVANVQSFPPAPEDKKPLTRLQERLIKKLGEHAYPFTFEIPPNLPCSVTLQPGPEDTGKACGVDYEVKAFCAENLEEKIHKRNSVRLVIRKVQYAPERPGPQPTAETTRQFLMSDKPLHLEASLDKEIYYHGEPISVNVHVTNNTNKTVKKIKISVRQYADICLFNTAQYKCPVAMEEADDTVAPSSTFCKVYTLTPFLANNREKRGLALDGKLKHEDTNLASSTLLREGANREILGIIVSYKVKVKLVVSRGGLLGDLASSDVAVELPFTLMHPKPKEEPPHREVPENETPVDTNLIELDTNDDDIVFEDFARQRLKGMKDDKEEEEDGTGSPQLNNR
chain 2: MWNSSDANFSCYHESVLGYRYVAVSWGVVVAVTGTVGNVLTLLALAIQPKLRTRFNLLIANLTLADLLYCTLLQPFSVDTYLHLHWRTGATFCRVFGLLLFASNSVSILTLCLIALGRYLLIAHPKLFPQVFSAKGIVLALVSTWVVGVASFAPLWPIYILVPVVCTCSFDRIRGRPYTTILMGIYFVLGLSSVGIFYCLIHRQVKRAAQALDQYKLRQASIHSNHVARTDEAMPGRFQELDSRLASGGPSEGISSEPVSAATTQTLEGDSSEVGDQINSKRAKQMAEKSPPEASAKAQPIKGARRAPDSSSEFGKVTRMCFAVFLCFALSYIPFLLLNILDARVQAPRVVHMLAANLTWLNGCINPVLYAAMNRQFRQAYGSILKRGPRSFHRLH

Variants of: B1
Experiment: BRET β-arrestin-1 recruitment
Details: with β-arrestin-1 fused to nano-luciferase, read off a plot
[1] = agonist OX04529, highest concentration point, log[agonist (M)] = -5
[2] = agonist OX04539, highest concentration point, log[agonist (M)] = -5
[3] = agonist OX04954, highest concentration point, log[agonist (M)] = -5

Row | Variant | response [1] | response [2] | response [3] | response (agonist OX04529, highest concentration point, log[agonist (M)] = -6, parent value read at the same concentration) | response (agonist OX04539, highest concentration point, log[agonist (M)] = -6, parent value read at the same concentration) | response (agonist OX04954, highest concentration point, log[agonist (M)] = -6, parent value read at the same concentration)
1 | chain 2 MWNSSDANFSCYHESVLGYRYVAVSWGVVVAVTGTVGNVLTLLALAIQPKLRTRFNLLIANLTLADLLYCTLLQPFSVDTYLHLHWRTGATFCRVFGLLLFASASVSILTLCLIALGRYLLIAHPKLFPQVFSAKGIVLALVSTWVVGVASFAPLWPIYILVPVVCTCSFDRIRGRPYTTILMGIYFVLGLSSVGIFYCLIHRQVKRAAQALDQYKLRQASIHSNHVARTDEAMPGRFQELDSRLASGGPSEGISSEPVSAATTQTLEGDSSEVGDQINSKRAKQMAEKSPPEASAKAQPIKGARRAPDSSSEFGKVTRMCFAVFLCFALSYIPFLLLNILDARVQAPRVVHMLAANLTWLNGCINPVLYAAMNRQFRQAYGSILKRGPRSFHRLH [chain 2 N104A] | 2 % of OX04539 | 100 % of OX04539 | 3 % of OX04539 | – | – | –
2 | chain 2 MWNSSDANFSCYHESVLGYRYVAVSWGVVVAVTGTVGNVLTLLALAIQPKLRTRFNLLIANLTLADLLYCTLLQPFSVDTYLHLHWRTGATFCRVFGLLLFASNSVSILTLCLIALGRYLLIAHPKLFPQVFSAKGIVLALVSTWVVGVASFAPLWPIYILVPVVCTCSFDRIRGRPYTTILMGIYFVLGLSSVGIFYCLIHRQVKRAAQALDQYKLRQASIHSNHVARTDEAMPGRFQELDSRLASGGPSEGISSEPVSAATTQTLEGDSSEVGDQINSKRAKQMAEKSPPEASAKAQPIKGARRAPDSSSEFGKVTRMCFAVFLCFALSYIPFLLLNILDARVQAPRVVHMLAANLTWLAGCINPVLYAAMNRQFRQAYGSILKRGPRSFHRLH [chain 2 N362A] | 0 % of OX04539 | 100 % of OX04539 | 6 % of OX04539 | – | – | –

Continued, values first:

Row | response [1] | response [2] | response [3] | response (agonist OX04529, highest concentration point, log[agonist (M)] = -6, parent value read at the same concentration) | response (agonist OX04539, highest concentration point, log[agonist (M)] = -6, parent value read at the same concentration) | response (agonist OX04954, highest concentration point, log[agonist (M)] = -6, parent value read at the same concentration) | Variant
3 | 8 % of OX04539 | 100 % of OX04539 | 38 % of OX04539 | – | – | – | chain 2 MWNSSDANFSCYHESVLGYRYVAVSWGVVVAVTGTVGNVLTLLALAIQPKLRTRFNLLIANLTLADLLYCTLLQPFSVDTYLHLHWRTGATFCRVFGLLLFASNSVSILTLCLIALGRYLLIAHPKLFPQVFSAKGIVLALVSTWVVGVASFAPLWPIYILVPVVCTCSFDRIRGRPYTTILMGIYFVLGLSSVGIFYCLIHRQVKRAAQALDQYKLRQASIHSNHVARTDEAMPGRFQELDSRLASGGPSEGISSEPVSAATTQTLEGDSSEVGDQINSKRAKQMAEKSPPEASAKAQPIKGARRAPDSSSEFGKVTRMCFAVFLCFALSFIPFLLLNILDARVQAPRVVHMLAANLTWLNGCINPVLYAAMNRQFRQAYGSILKRGPRSFHRLH [chain 2 Y332F]
4 | – | – | – | 23 % of OX04539 | 100 % of OX04539 | 66 % of OX04539 | chain 2 MWNSSDANFSCYHESVLGYRYVAVSWGVVVAVTGTVGNVLTLLALAIQPKLRTRFNLLIANLTLADLLYCTLLQPFSVDTYLHLHWRTGATFCRVFGLLLFASNSVSILTLCLIALGRYLLIAHPKLFPQVFSAKGIVLALVSTWVVGVASFAPLWPIYILVPVVCTCSFDRIRGRPYTTILMGIYFVLGLSSVGIFYCLIHRQVKRAAQALDQYKLRQASIHSNHVARTDEAMPGRFQELDSRLASGGPSEGISSEPVSAATTQTLEGDSSEVGDQINSKRAKQMAEKSPPEASAKAQPIKGARRAPDSSSEFGKVTRMCFAVFLCFALAYIPFLLLNILDARVQAPRVVHMLAANLTWLNGCINPVLYAAMNRQFRQAYGSILKRGPRSFHRLH [chain 2 S331A]
